Results reported in ChEMBL document CHEMBL4340540, “3-Substituted Quinolines as RORγt Inverse Agonists” (Bioorg Med Chem Lett, 2019).

Amino acid sequences for entries named in this document (tags omitted). A change or cut given only in a name is not applied to a line headed by its entry.
UniProt P51449: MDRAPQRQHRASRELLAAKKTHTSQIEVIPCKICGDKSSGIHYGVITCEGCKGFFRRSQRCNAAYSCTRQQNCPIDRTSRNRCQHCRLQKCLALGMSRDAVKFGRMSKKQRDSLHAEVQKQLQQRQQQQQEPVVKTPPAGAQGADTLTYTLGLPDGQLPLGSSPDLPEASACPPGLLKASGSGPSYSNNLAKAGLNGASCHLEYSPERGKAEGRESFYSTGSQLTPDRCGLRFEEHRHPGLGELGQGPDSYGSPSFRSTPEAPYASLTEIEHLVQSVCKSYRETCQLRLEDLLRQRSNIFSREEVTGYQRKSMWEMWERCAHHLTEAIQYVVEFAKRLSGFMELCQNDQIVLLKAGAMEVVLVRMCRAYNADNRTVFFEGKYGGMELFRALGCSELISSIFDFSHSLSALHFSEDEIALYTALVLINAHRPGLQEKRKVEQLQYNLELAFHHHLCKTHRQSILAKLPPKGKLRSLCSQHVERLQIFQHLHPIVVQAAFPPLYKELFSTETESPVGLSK

Columns and labels:
[1] = target: T1, Nuclear receptor ROR-gamma (Homo sapiens, UniProt P51449)
[2] = target: T1, Nuclear receptor ROR-gamma; remark: listed apart in the source
[3] = target: T1, Nuclear receptor ROR-gamma; remark: listed apart in the source
[4] = target: T1, Nuclear receptor ROR-gamma; remark: listed apart in the source

| IC50 [2] | Compound | Kd [1] | IC50 [3] | IC50 [4] |
| --- | --- | --- | --- | --- |
| 327 nM | COc1nc2ccc(C(O)(c3ccc(C)nc3C)c3cnnn3C)cc2c(Cl)c1C (centres undefined) |  |  |  |
| 122 nM | COc1nc2ccc(C(O)(c3ccc(C)nc3C)c3cnnn3C)cc2c(Cl)c1CN1CCC(n2cccn2)CC1 (centres undefined) |  |  |  |
| 193 nM | COc1nc2ccc(C(O)(c3ccc(C)nc3C)c3cnnn3C)cc2c(Cl)c1OC1CCOCC1 (centres undefined) |  |  |  |

More lines, now with the values behind:

| Compound | IC50 [2] | Kd [1] | IC50 [3] | IC50 [4] |
| --- | --- | --- | --- | --- |
| COc1nc2ccc(C(O)(c3cnc(C)n3C)C3CCOCC3)cc2c(Cl)c1CN1CCC(C(F)(F)F)CC1 (centres undefined) |  | 0.6 nM |  |  |
| COc1nc2ccc(C(O)(c3ccc(C)nc3C)c3cnnn3C)cc2c(Cl)c1CC1CC1 (centres undefined) | 30 nM |  |  |  |
| COc1nc2ccc(C(O)(c3ccc(C)nc3C)c3cnnn3C)cc2c(Cl)c1CC(C)C (centres undefined) | 844 nM | 412 nM |  |  |
| COc1nc2ccc([C@@](O)(c3ccc(C(F)(F)F)nc3)c3cncn3C)cc2c(Cl)c1CN1CCC(C(F)(F)F)CC1 | 61 nM | 1.1 nM | 17 nM |  |
| COc1nc2ccc(C(O)(c3cnnn3C)C3CN(C(C)=O)C3)cc2c(Cl)c1CN1CCC(C(F)(F)F)CC1 (centres undefined) |  | 18.8 nM |  | 166 nM |
| COc1nc2ccc(C(O)(c3ccc(C(F)(F)F)nc3)C3CN(C(C)=O)C3)cc2c(Cl)c1CN1CCC(C(F)(F)F)CC1 (centres undefined) |  |  |  | 50 nM |
| COc1nc2ccc(C(O)(c3cnc(C)n3C)C3CN(C(C)=O)C3)cc2c(Cl)c1CN1CCC(C(F)(F)F)CC1 (centres undefined) |  |  |  | 313 nM |
